The results in this text go back to patent US20050070470A1 (ADMINISTRATORS OF THE TULANE EDUCATIONAL FUND, published 2005).

Amino acid sequences for entries named in this document (tags omitted). A change or cut given only in a name is not applied to a line headed by its entry.
UniProt P30680: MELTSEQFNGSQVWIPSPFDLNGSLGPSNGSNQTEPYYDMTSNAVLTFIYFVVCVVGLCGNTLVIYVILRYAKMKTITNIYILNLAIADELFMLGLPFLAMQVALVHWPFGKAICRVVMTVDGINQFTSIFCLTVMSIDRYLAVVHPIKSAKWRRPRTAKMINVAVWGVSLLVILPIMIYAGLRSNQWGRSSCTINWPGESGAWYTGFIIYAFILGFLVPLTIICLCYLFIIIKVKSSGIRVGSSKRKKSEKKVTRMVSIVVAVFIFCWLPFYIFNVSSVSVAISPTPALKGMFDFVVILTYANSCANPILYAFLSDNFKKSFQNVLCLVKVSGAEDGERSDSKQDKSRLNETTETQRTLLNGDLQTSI

The target of this assay is somatostatin subtype 2 rat receptor (rat, UniProt P30680 1-369). Briefly: cell-based or functional assay.

B1: Succinate-D-Asp-D-Ser-D-Ser-D-Ser-D-Ser-D-Ser-D-Asp-D-Ser-D-Ser-D-Ser-D-Ser-D-Ser-L-Lys-D-Tyr-D-Tyr-cyclo[L-Cys-L-Phe-D-Trp-L-Lys-L-Thr-L-Cys]-L-Thr-NH2 (peptide)
peptide: DSSSSSDSSSSSKYYCFWKTCT
modifications: N-terminal succinate (succinoyl); D-Asp 1, D-Ser 2-6, D-Asp 7, D-Ser 8-12, D-Tyr 14, D-Tyr 15, D-Trp 18; cyclo (disulfide) Cys 16-Cys 21; C-terminal amide
Consider B1, for which the “IC50 (nM), inhibition of GH release from primary cultures of rat pituitary cells” value came to 0.51 nM.
